{
  "source": "paper PMC5911420",
  "about": "(DNA repair, 2018)",
  "binders": {"B1": {"name": "GST-tagged NEIL1 C-terminal construct 289–349 (domain or fragment, human, UniProt Q96FI4 289-349, looked up)", "chain": "APKGRKSRKKKSKATQLSPEDRVEDALPPSKAPSRTRRAKRDLPKRTATQRPEGTSLQQDP"}},
  "biological_target": "T1, human mitochondrial single-stranded DNA binding protein, purified recombinant (human, UniProt Q04837 17-148)",
  "T1 sequence (looked up)": "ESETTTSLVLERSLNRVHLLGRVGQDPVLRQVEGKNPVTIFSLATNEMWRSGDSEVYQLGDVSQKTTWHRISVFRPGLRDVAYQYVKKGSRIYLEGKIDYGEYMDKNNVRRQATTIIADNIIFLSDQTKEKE",
  "assay": "far-Western, overlay or dot blot",
  "data": [
    {"binder": "B1", "values": [
      {"measurement": "binding result", "result": "binds"}
    ]}
  ]
}
